pIC50: −log10 of the molar value.
How the values were obtained:
[1] = target: Vascular endothelial growth factor receptor 1 (Homo sapiens, UniProt P17948); experiment: Inhibition of VEGFR1 expressed in human tumor cells
[2] = target: Platelet-derived growth factor receptor beta (Homo sapiens, UniProt P09619); experiment: Inhibition of PDGFRbeta expressed in human tumor cells

Amino acid sequences for entries named in this document (tags omitted).
UniProt P17948, whole entry: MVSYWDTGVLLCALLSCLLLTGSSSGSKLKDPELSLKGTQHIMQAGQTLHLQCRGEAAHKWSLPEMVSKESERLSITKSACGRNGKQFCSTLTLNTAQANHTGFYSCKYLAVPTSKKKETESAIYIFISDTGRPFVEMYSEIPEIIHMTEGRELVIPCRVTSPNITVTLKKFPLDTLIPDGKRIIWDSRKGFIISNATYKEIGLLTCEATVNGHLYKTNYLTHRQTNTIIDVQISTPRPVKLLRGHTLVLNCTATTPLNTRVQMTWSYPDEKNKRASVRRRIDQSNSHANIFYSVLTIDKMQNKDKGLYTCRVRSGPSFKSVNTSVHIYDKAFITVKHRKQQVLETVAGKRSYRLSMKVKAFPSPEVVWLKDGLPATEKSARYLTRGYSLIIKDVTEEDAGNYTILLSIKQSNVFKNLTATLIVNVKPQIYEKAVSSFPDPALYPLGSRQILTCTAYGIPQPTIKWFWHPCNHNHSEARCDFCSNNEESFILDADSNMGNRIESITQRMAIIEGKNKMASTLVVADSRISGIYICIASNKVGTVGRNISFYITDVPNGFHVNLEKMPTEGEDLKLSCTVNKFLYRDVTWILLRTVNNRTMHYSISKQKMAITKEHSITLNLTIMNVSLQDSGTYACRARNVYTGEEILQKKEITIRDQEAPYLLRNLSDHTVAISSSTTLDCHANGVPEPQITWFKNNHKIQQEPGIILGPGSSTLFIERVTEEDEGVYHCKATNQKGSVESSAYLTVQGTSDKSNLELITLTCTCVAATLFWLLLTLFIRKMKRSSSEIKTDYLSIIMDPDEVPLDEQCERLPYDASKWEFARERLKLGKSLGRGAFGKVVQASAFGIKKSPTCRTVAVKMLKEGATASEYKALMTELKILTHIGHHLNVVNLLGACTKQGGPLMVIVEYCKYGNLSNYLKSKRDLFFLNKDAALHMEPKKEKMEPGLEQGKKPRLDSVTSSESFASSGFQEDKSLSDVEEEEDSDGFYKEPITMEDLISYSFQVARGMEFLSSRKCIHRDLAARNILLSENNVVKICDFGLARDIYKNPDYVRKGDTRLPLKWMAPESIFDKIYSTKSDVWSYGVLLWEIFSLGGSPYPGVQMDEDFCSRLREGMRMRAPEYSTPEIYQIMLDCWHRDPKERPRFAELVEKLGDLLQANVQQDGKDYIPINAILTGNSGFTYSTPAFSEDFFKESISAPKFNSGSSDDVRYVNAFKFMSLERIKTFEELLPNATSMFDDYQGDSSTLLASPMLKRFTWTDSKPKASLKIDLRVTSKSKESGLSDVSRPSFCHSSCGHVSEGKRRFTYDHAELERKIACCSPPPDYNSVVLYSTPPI
UniProt P09619, whole entry: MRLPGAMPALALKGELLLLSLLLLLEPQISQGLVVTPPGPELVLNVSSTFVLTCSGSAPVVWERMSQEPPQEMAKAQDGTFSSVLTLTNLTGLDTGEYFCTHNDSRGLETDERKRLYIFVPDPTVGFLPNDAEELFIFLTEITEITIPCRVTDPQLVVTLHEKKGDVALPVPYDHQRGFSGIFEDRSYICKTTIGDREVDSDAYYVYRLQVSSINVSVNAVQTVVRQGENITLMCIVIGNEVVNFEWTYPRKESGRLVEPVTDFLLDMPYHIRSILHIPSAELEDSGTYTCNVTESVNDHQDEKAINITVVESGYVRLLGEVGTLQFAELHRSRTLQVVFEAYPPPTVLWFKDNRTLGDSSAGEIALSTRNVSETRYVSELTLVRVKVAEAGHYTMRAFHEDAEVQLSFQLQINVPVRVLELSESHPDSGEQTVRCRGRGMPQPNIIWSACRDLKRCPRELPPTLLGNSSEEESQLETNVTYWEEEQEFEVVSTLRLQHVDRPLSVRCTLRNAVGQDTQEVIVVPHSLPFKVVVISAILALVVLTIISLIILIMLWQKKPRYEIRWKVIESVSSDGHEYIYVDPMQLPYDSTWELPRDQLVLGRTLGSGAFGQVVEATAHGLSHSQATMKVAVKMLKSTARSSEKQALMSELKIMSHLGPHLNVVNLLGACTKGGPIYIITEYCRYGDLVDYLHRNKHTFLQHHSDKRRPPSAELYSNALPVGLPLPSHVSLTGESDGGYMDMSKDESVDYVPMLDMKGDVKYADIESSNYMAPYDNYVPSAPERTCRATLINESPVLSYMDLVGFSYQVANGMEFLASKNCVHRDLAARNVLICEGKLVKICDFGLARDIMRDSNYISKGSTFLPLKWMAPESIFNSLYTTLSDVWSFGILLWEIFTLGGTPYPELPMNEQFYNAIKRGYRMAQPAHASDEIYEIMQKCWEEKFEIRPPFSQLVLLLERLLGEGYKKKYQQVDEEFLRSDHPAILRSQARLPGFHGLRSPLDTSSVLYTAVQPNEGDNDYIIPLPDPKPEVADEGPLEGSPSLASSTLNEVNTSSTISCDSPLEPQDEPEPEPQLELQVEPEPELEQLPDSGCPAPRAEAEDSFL

| pIC50 [2] | Structure (SMILES) | pIC50 [1] |
| --- | --- | --- |
|  | COc1cc2ncnc(Nc3ccc(Cl)cc3F)c2cc1OC | 4.75 |
| < 4.30 | Nc1nc(Nc2cccc(Br)c2)c2cc(Cc3cccc4ccccc34)[nH]c2n1 |  |
